Target: URAT1 (Homo sapiens (Human), UniProt Q96S37)
Assay: Inhibition of [8-14C] uric acid uptake by HEK293 cells stably expressing URAT1, test compounds at 10 μM
Format: cell-based
Settings: 10 μM test compound, 30 μM [8-14C] uric acid, 2 min, read-out: Inhibition rate (%)
Description: (I) Inhibitory Experiment of the Test Compounds at a Concentration of 10 μM on URAT1 After trypsin digestion, the expression cells (HEK293) stably expressing URAT1 gene and mock cells were all inoculated into lysine-coated 24-well culture plates, with the cell inoculation density being 1×10^5 cells/well, and cultured in incubator at 37° C., 5% CO2 and saturated humidity for 2 days. […] After 2 min, the reaction was terminated with ice-bathed DPBS buffer solution and washing was carried out for three times. […]
wherein, control=the intensity of radioactivity corresponding to the well without the test compound test compound=the intensity of radioactivity corresponding to the well with the test compound mock=the intensity of radioactivity corresponding to the well of blank cells untransfected with URAT1

Protein sequences, listed by entry. Tags and fused reporters are not part of them. Lines headed by an entry give the natural chain unless they say otherwise; changes in a name come on top.
UniProt Q96S37: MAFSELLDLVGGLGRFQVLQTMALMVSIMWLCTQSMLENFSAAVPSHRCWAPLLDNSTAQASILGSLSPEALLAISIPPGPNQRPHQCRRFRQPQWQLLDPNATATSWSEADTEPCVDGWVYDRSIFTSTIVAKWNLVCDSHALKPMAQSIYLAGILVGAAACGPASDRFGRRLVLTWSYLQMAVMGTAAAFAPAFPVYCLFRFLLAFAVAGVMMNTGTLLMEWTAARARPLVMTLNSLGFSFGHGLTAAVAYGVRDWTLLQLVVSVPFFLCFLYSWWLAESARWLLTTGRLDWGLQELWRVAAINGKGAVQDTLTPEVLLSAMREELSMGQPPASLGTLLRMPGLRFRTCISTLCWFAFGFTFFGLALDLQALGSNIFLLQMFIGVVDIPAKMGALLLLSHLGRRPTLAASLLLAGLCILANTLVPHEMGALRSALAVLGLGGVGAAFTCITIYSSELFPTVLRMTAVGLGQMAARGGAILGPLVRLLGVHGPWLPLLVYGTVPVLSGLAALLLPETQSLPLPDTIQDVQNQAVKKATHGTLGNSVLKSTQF

## O=C(O)CSc1nnc(Br)n1-c1ccc(C2CC2)c2ccccc12 [lesinurad, Lesinurad, reference compound]
  inhibition at 10 µM: 44%
